Sequences of proteins named here, by UniProt entry; tags and fusion partners are left off. A change or cut given only in a name is not applied to a line headed by its entry.
UniProt Q9HBH9: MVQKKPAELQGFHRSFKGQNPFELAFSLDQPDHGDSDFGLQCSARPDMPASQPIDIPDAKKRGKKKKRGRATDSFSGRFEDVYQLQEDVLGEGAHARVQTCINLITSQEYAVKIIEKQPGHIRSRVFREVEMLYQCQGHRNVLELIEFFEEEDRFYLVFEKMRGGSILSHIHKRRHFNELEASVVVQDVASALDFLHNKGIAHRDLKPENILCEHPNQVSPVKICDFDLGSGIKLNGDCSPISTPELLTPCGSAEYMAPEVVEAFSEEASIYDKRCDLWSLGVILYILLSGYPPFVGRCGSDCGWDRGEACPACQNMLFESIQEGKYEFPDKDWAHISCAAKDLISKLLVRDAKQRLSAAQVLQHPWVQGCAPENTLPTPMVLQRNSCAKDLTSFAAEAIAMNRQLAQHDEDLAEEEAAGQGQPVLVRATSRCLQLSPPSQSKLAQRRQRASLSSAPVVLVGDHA
UniProt Q9BUB5: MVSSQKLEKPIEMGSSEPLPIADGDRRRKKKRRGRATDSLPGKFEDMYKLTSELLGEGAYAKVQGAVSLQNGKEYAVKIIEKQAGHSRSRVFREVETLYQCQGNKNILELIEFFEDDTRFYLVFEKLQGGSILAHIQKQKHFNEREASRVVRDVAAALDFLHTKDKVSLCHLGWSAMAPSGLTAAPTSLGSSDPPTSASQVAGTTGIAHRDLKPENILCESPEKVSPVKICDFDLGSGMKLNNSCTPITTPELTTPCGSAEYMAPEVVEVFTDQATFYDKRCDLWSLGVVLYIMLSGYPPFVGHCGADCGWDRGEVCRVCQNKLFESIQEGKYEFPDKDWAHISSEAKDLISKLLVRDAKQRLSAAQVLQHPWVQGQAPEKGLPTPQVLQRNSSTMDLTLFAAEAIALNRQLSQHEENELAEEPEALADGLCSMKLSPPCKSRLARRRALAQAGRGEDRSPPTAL

According to ChEMBL document CHEMBL4184320, “Optimization of Selective Mitogen-Activated Protein Kinase Interacting Kinases 1 and 2 Inhibitors for the Treatment of Blast Crisis Leukemia” (J Med Chem, 2018):

What was measured:
[1] = Efflux ratio of apparent permeability in human Caco2 cells by LC-MS/MS analysis; format: ADME, cell-based; settings: Caco-2
in vivo = settings: CD-1, mouse, po, 5 mg/kg
[2] = molecular target: MAP kinase-interacting serine/threonine-protein kinase 1/2 (Homo sapiens, UniProt Q9HBH9+Q9BUB5); assay: Inhibition of MNK1/2 in human HeLa cells assessed as decrease in eIF4E phosphorylation at Ser209 after 2 hrs by AlphaScreen assay; format: cell-based

Molecule `N#Cc1ccc(-c2cnc3ccc(-c4ccc(C(=O)N5CCOCC5)cc4)nn23)cc1` has an efflux ratio [1] of 0.64 and a Tmax (in vivo) of 30 min.
Work on `CN1CCN(C(=O)c2ccc(-c3cn4c(-c5ccc(C#N)cc5)cnc4cn3)cc2)CC1` yielded an IC50 [2] of 440 nM.
